Test results as given in PubChem BioAssay AID504706 (National Center for Advancing Translational Sciences (NCATS), 2011).
The list shows a part of the results, in another mix than the full data. Inconclusive results are not listed. Some salts and complexes are drawn in separate pieces, as the source files them; their charges need not balance. Calls of active or inactive are those of the source. The call rests on the fitted dose curve; in most records, active means well fitted activation curve with a large enough effect; inconclusive means small, poorly fitted or top-dose-only effect; inactive means no such curve, though single readings can be large or run the other way.

test: qHTS assay for re-activators of p53 using a Luc reporter; settings: H1299 p53-A138V BP100-luciferase reporter, luminescence, 24 h; at 92.2 µM (top of the series); further: % of control where 0% means no effect; nearly all actives have a fitted effect of over 45% in size
From the text: The p53 tumor suppressor plays a key role in suppression of tumorigenesis and in human carcinogenesis. It is frequently found inactivated in human cancers, mainly by point mutation. These point mutations are found in a wide variety of human cancers and a majority of them affect the DNA binding domain of the protein. The point mutations either alter native p53 conformation or abolish DNA contact. Additionally, cancer cells with p53 mutations are more resistant to chemo-radiation therapies. In order to find activators to reactivate this important protein, a cell-based screen for p53-dependent luciferase-reporter expression was developed. A p53-null H1299 lung cancer cell line was stably co-transfected with a temperature sensitive p53 mutant, p53-A138V, and a p53-responsive BP100-luciferase reporter. This cell model has previously been characterized in a gene chip profiling experiment for p53 activation. By lowering the culture temperature from 37 deg C (mutant p53 conformation) to 32 deg C (w.t. p53 conformation), a 30-60 fold increase in activation of luciferase activity is observed. At assay temperate, 37 deg C, basal reporter expression is very low and after the addition of detection reagent, a luminescent read-out is carried out. NIH Chemical Genomics Center [NCGC] NIH Molecular Libraries Probe Production Centers Network [MLPCN] MLPCN Grant: DA031088-01A1 Assay Provider (PI): Yi Sung, University of Michigan at Ann Arbor
5ul of 1000 cells per well are dispensed in all wells except column 4, into white solid-bottom TC-treated Kalypsys plates. The cells are kept in Opti-MEM and supplemented with 10% FBS and dispensed using a Multidrop (Thermo). Then using the Kalypsys pin-tool, 23nl of compounds are pinned. The compounds are starting concentration at 10mM, with 1:5 dilution, 4 points, and the control compound nocodazole is pinned in column 1 at 25mM, 1:3 dilution, in duplicate, 25mM nocodazole is pinned in column 2. Please note, all concentrations are working concentrations. 5ul of 1pM purified luciferase enzyme is dispensed using the Kalypsys dispenser in column 4. Plates are incubated for 24 hrs at 37 deg C, 5% CO2, and 95% humidity. Then 4ul of the detection reagent Amplite (ABD Bioquest) is added using the Kalypsys dispenser. Plates are incubated for 10 min at ambient room temperature and are then read on the ViewLux (Perkin Elmer) using a clear filter for a luminescent read-out.

Row | Compound | activity change, positive = activation
1 | CCC(CO)(C(=O)OC1CN2CCC1CC2)c1ccccc1 (stereo not given) | inactive: 3.68%
2 | COc1cc(OC)cc(C(=O)NCC2(N3CCOCC3)CCCCC2)c1 | inactive: 0.208%
3 | COc1cccc(C(=O)N(c2cc(C)cc(C)c2)C2CCN(C(=O)OC(C)(C)C)CC2)c1 | inactive: -1.6%
4 | CCCOc1ccc(C)cc1CN(CCCl)CCCl | inactive: -2.22%
5 | CCOc1ncccc1C(=O)NCC1(N2CCOCC2)CCCCC1 | inactive: -6.81%
6 | CN1CCC(Nc2ccc(F)c(Cl)c2)CC1 | inactive: -11.2%
7 | CCCOc1ccc(C(=O)NCC2(N(C)C)CCCCC2)cc1 | inactive: -3.93%
8 | CC(C)(C)OC(=O)N1CCC(Nc2ccccc2)CC1 | inactive: 0.342%
9 | O=C(O)C1(Nc2ccccc2)CCN(Cc2ccccc2)CC1 | inactive: -7.67%
10 | CCN1CCC(Nc2cccc(F)c2)CC1 | inactive: -0.663%
11 | O=C(NCC1(N2CCCCC2)CCCCC1)c1ccco1 | inactive: 5.64%
12 | CN(C)c1ccc(C(=O)NCC2(N3CCCCC3)CCCCC2)cc1 | inactive: 0.335%
13 | COc1cc(OC)cc(C(=O)NCC2(N3CCCCC3)CCCCC2)c1 | inactive: 1.34%
14 | Cc1ccc(C(=O)NCC2(N3CCCCC3)CCCCC2)o1 | inactive: -1.33%
15 | Fc1ccccc1NC1CCN(Cc2ccccc2)CC1 | inactive: 0.93%
16 | c1ccc(CN2CCC(Nc3ccccc3)CC2)cc1 | inactive: -1.69%
17 | CN(C)C1(CNC(=O)c2cccc(C#N)c2)CCCCC1 | inactive: 0.27%
18 | CC(C)(C)OC(=O)N1CCC(N(C(=O)c2ccccc2)c2ccc(Cl)cc2)CC1 | inactive: -8.71%
19 | N#Cc1ccc(C(=O)NCC2(N3CCCCC3)CCCCC2)cc1 | inactive: 4.85%
20 | CCOC(=O)C(CC)C1=NC(C)(C)Cc2ccccc21.O=[N+]([O-])c1cc([N+](=O)[O-])c(O)c([N+](=O)[O-])c1 (stereo not given) | inactive: -0.698%
21 | N/C(=N\O)c1c(N)no[n+]1[O-] | inactive: 0.067%
22 | CCOC(=O)N1CCC(Nc2ccc(C)cc2)CC1 | inactive: 18%
23 | CCc1cc(C(=O)NCC2(N3CCCCC3)CCCCC2)sc1C | inactive: 2.18%
24 | O=C(OC1CN2CCC1CC2)C1c2ccccc2C=Cc2ccccc21 (stereo not given) | inactive: -9.85%

Row | Compound | activity change, positive = activation
25 | O=C(O)c1cccc(Nc2c([N+](=O)[O-])cc([N+](=O)[O-])cc2[N+](=O)[O-])c1 | inactive: 4.25%
26 | O=C(NCC1(N2CCOCC2)CCCCC1)c1cc(Br)ccc1Cl | inactive: -5.81%
27 | COc1cc(C(=O)NCC2(N3CCOCC3)CCCCC2)cc(OC)c1C | inactive: -0.185%
28 | COc1ccc(C(=O)NCC2(N3CCOCC3)CCCCC2)cc1OC | inactive: 3.65%
29 | COc1ccc2c(c1O)-c1c(O)c(OC)cc3c1[C@H](C2)[N+](C)(C)CC3.O=[N+]([O-])c1cc([N+](=O)[O-])c([O-])c([N+](=O)[O-])c1[O-] | inactive: 8.7%
30 | O=C(NCC1(N2CCCCC2)CCCCC1)c1cncc(Br)c1 | inactive: -7.37%
31 | O=C(OC1CN2CCC1CC2)c1ccc([N+](=O)[O-])cc1 (stereo not given) | inactive: -3.44%
32 | CCCOc1ccc(C(=O)NCC2(N(C)C)CCCCC2)cc1OC | inactive: -2.57%
33 | COc1ccc(CN(CCCl)CCCl)cc1Cl | inactive: 1.67%
34 | O=[N+]([O-])c1cc([N+](=O)[O-])c(OC2CCCCC2O)c([N+](=O)[O-])c1 (stereo not given) | inactive: -0.99%
35 | CN(C)c1cccc(C(=O)NCC2(N3CCCCC3)CCCCC2)c1 | inactive: 3.9%
36 | CC(C)c1ccc(NC2CCN(C(=O)OC(C)(C)C)CC2)cc1 | inactive: 19.3%
37 | COc1cc(OC)c(C(=O)NCC2(N(C)C)CCCCC2)cc1OC | inactive: -0.881%
38 | O=C(NCC1(N2CCOCC2)CCCCC1)c1cc(F)c(F)cc1Cl | inactive: -2.62%
39 | O=C(NCC1(N2CCCCC2)CCCCC1)c1cccc(C(F)(F)F)c1 | inactive: 5.88%
40 | O=[N+]([O-])c1cc([N+](=O)[O-])c(NCC2CCS(=O)(=O)C2)c([N+](=O)[O-])c1 (stereo not given) | inactive: -5.68%
41 | CN1CCN(CCOC(=O)C(O)(c2ccccc2)c2ccccc2)CC1 | inactive: 1.26%
42 | CC(C)c1ccc(C(=O)NCC2(N3CCOCC3)CCCCC2)cc1 | inactive: 2.56%
43 | COc1ccc(NC2CCN(C(=O)OC(C)(C)C)CC2)cc1 | inactive: 1.37%
44 | COc1cc(C(=O)NCC2(N3CCCCC3)CCCCC2)ccc1OC(F)F | inactive: -2.03%
45 | O=C(NCC1(N2CCOCC2)CCCCC1)c1cc(=O)[nH]c2ccccc12 | inactive: 1.41%
46 | O=C(NCC1(N2CCCCC2)CCCCC1)c1ccc(OC(F)F)cc1 | inactive: 1.2%
47 | CSc1ccc(C(=O)NCC2(N3CCOCC3)CCCCC2)cc1 | inactive: -2.08%
48 | O=C(NCC1(N2CCCCC2)CCCCC1)c1cccc([N+](=O)[O-])c1 | inactive: 4.48%

Row | Compound | activity change, positive = activation
49 | N#CC1(Nc2ccccc2)CCN(CCc2ccccc2)CC1 | inactive: -4.53%
50 | COc1cc(C(=O)NCC2(N(C)C)CCCCC2)ccc1OC(F)F | inactive: -0.101%
51 | Cc1ccc(OCC(C)C)c(CN(CCCl)CCCl)c1 | inactive: 5.2%
52 | CCOc1ccc(C)cc1CN(CCCl)CCCl | inactive: 1.25%
53 | CCCCOc1ccc(C(=O)NCC2(N3CCOCC3)CCCCC2)cc1 | inactive: -7.08%
54 | O=C(NCC1(N2CCCCC2)CCCCC1)c1ccc(F)cc1 | inactive: -3.92%
55 | COc1ccc(NC2CCN(CCc3ccccc3)CC2)c(OC)c1 | inactive: -15.2%
56 | CCOC(=O)N1CCC(Nc2ccc(F)cc2)CC1 | inactive: 8.29%
57 | O=C(NCC1(N2CCOCC2)CCCCC1)c1cc2ccccc2o1 | inactive: 0.535%
58 | O=C(NCC1(N2CCCCC2)CCCCC1)c1ccc(Cl)nc1 | inactive: -0.309%
59 | Cc1cc(C)cc(N(C(=O)c2ccccc2)C2CCN(C(=O)OC(C)(C)C)CC2)c1 | inactive: 0.377%
60 | CCOC(=O)N1CCC(Nc2ccc(OC)cc2)CC1 | inactive: -0.973%
61 | N#CC1(Nc2ccccc2)CCN(Cc2ccccc2)CC1 | inactive: 5.39%
62 | O=C(NCC1(N2CCCCC2)CCCCC1)c1ccc(Cl)s1 | inactive: -6.33%
63 | O=C(OC1CN2CCC1CC2)C1c2ccccc2Oc2ccccc21 (stereo not given) | inactive: -13.1%
64 | COc1ccc(Cl)cc1C(=O)NCC1(N2CCOCC2)CCCCC1 | inactive: -3.53%
65 | O=C(NCC1(N2CCCCC2)CCCCC1)c1ccc(=O)[nH]c1 | inactive: -3.01%
66 | O=C(NCC1(N2CCCCC2)CCCCC1)c1cccs1 | inactive: 2.7%
67 | COc1ccc(C(=O)NCC2(N3CCCCC3)CCCCC2)cc1 | inactive: 0.449%
68 | CC(C)(C)OC(=O)N1CCC(N(C(=O)c2ccccc2)c2ccc(F)cc2)CC1 | inactive: 2.38%
69 | COc1ccc(C(=O)NCC2(N3CCCCC3)CCCCC2)c(OC)c1OC | inactive: -9.91%
70 | CSc1ccccc1C(=O)NCC1(N2CCCCC2)CCCCC1 | inactive: -7.29%
